Source: patent US8178691B2

Test: solubility of 1,2,4-triazol-3-one in water and in formic acid (FIG. 1)
Conditions: solvents water and formic acid, as a function of temperature (FIG. 1)

In the case of O=C1N=CN=N1, the “solubility in formic acid compared with water” value is reported as “much more soluble in formic acid than it is in water”.
